Measurements taken from ChEMBL document CHEMBL1131095, “Derivation of a three-dimensional pharmacophore model of substance P antagonists bound to the neurokinin-1 receptor” (J Med Chem, 1998).

Amino acid sequences for entries named in this document (tags omitted).
UniProt P25103, whole entry: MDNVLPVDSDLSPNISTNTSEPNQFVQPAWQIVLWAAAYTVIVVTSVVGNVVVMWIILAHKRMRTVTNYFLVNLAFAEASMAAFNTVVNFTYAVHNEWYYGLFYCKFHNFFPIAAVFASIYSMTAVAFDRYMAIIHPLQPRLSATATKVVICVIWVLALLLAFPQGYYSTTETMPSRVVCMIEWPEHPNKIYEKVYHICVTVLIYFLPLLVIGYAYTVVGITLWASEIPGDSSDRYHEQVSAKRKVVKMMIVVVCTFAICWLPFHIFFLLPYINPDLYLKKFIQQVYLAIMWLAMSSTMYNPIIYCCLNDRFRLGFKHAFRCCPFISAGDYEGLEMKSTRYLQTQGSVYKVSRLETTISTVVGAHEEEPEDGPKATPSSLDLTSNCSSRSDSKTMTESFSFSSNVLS

Biological target: Substance-P receptor (Homo sapiens, UniProt P25103)
Assay: Binding affinity was measured against the Tachykinin receptor 1 in CHO-expressed hNK1 using [125I]SP.

| SMILES | IC50 [nM] |
| --- | --- |
| Cc1cc(C)cc(CO[C@@H]2/C(=C/c3ccccc3)N3CCC2CC3)c1 | 8130 |
| CN(C)[C@H](COCc1cc(C(F)(F)F)cc(C(F)(F)F)c1)C(c1ccccc1)c1ccccc1 | 2 |
| Cc1cc(C)cc(CO[C@@H]2/C(=C\c3ccccc3)N3CCC2CC3)c1 | 129 |
| N[C@H](COCc1cc(C(F)(F)F)cc(C(F)(F)F)c1)C(c1ccccc1)c1ccccc1 | 10.7 |
